One molecule from US20110263827A1 (AbbVie / Abbott, published 2011) can be followed below.

Amino acid sequences for entries named in this document (tags omitted). Chains listed by the source or under a name are the forms on record and can include a tag or linker.
UniProt P15692, other isoform, or with tags, fused parts or gaps limits assumed: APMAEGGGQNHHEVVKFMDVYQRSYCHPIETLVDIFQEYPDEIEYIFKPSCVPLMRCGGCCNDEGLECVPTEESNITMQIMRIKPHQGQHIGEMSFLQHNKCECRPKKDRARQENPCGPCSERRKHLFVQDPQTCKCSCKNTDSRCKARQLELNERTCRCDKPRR

Several values for one entry are separate records, joined by “and”; a condition that tells them apart may be missing. Equal entries are not always repeated.

The assay has as its target T1, VEGF (UniProt P15692-4 27-191, limits assumed, biotinylated).
T1 construct: ELISA antigen
The experiment in a line: direct bind ELISA, ref Ab.

What is called EC50 is the midpoint of the concentration-response curve. A high value points to weaker potency.

B1: AB070 (antibody, V domains shown)
VH: EVQLVESGGGLVQPGGSLRLSCAASGFTISDYWIHWVRQAPGKGLEWVAGITPAGGYTYYADSVKGRFTISADTSKNTAYLQMNSLRAEDTAVYYCARFVFFLPYAMDYWGQGTLVTVSS
VL: DIQMTQSPSSLSASVGDRVTITCRASQDVSTAVAWYQQKPGKAPKLLIYSASFLYSGVPSRFSGSGSGTDFTLTISSLQPEDFATYYCQQSYTTPPTFGQGTKVEIKR
notes: parent antibody
Turning to B1, the EC50 is 5.12 nM and 5.91 nM.
